Experimental data as given in ChEMBL document CHEMBL4814004, “Design and synthesis of quinoline-pyrimidine inspired hybrids as potential plasmodial inhibitors” (Eur J Med Chem, 2021).

How the values were obtained:
Plasmodium falciparum [1] = tested on: Plasmodium falciparum
Plasmodium falciparum [2] = tested on: Plasmodium falciparum; remark: listed apart in the source

Ka (Plasmodium falciparum [1]) | Ka (Plasmodium falciparum [2]) | SMILES
2.68 10^6/M.s | 1.34 10^4/M.s | COc1ccc(-c2cc(-c3ccc(OC)c(OC)c3)nc(N3CCN(c4ccnc5cc(Cl)ccc45)CC3)n2)cc1OC
2.79 10^5/M.s | 1.91 10^6/M.s | Oc1ccc(-c2cc(-c3ccc(O)c(O)c3)nc(NCCCCNc3ccnc4cc(Cl)ccc34)n2)cc1
3.3 10^6/M.s | 5.99 10^3/M.s | COc1ccc(-c2cc(-c3ccc(OC)cc3)nc(N3CCN(c4ccnc5cc(Cl)ccc45)CC3)n2)cc1
7.73 10^6/M.s | 2.7 10^7/M.s | Oc1ccc(-c2cc(-c3ccc(O)cc3)nc(NCCCCNc3ccnc4cc(Cl)ccc34)n2)cc1
